Earlier results, collected in article PMC4615734 (Theranostics, 2015).

Conditions: standard FDG-PET

effective dose: approximately 0.019 mSv/MBq | effective dose at a dose of 300 MBq (300 MBq): 5.7 mSv
Structure (SMILES): OC[C@H]1OC(O)[C@H](F)[C@@H](O)[C@@H]1O (some centres unmarked) [FDG, ^18F-fluoro-deoxy-glucose]
